Data from ChEMBL document CHEMBL1135692, “Structure-activity relationships of the melanocortin tetrapeptide Ac-His-D-Phe-Arg-Trp-NH2 at the mouse melanocortin receptors. 4. Modifications at the Trp position” (J Med Chem, 2002).

Protein sequences, listed by entry. Tags and fused reporters are not part of them. Lines headed by an entry give the natural chain unless they say otherwise; changes in a name come on top.
UniProt Q01727: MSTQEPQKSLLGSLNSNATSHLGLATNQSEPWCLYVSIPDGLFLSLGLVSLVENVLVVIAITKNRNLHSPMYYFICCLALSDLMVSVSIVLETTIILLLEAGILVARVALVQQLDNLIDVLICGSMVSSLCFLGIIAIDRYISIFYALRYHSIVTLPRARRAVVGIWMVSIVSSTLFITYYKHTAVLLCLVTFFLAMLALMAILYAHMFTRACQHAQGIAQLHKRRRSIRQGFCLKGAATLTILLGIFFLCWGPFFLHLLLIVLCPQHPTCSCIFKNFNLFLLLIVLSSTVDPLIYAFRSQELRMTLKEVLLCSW

Target: Melanocyte-stimulating hormone receptor (Mus musculus, UniProt Q01727)
Assay: Activity in mouse melanocortin-1 receptor stably expressed in HEK293 cells
Type: cell-based

CC(=O)N[C@@H](Cc1cnc[nH]1)C(=O)N[C@H](Cc1ccccc1)C(=O)N[C@@H](CCCN=C(N)N)C(=O)NC(Cc1c[nH]c2ccccc12)C(N)=O (stereo in doubt)
EC50: 140 nM
